How the values were obtained:
CBP BRD protein = CBP BRD protein (Homo sapiens, UniProt Q92793); assay: CBP bromodomain TR-FRET inhibitory activity assay; details: read-out: CBP BRD IC50, Table 3
BRD4 (BD1) protein = BRD4 (BD1) protein (Homo sapiens, UniProt O60885); assay: BRD4 bromodomain TR-FRET inhibitory activity assay; details: read-out: BRD4 (BD1) IC50, Table 4

The chains behind the UniProt entries cited, without tags or fusion partners. Residues count along the entry.
UniProt Q92793, 1085-1192 limits assumed: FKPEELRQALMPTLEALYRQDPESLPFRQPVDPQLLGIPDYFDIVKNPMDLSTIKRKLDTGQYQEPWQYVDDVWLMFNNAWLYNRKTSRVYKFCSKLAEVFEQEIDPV

Cn1cncc1-c1nc2cc(-c3ccc4[nH]c(=O)ccc4c3)c(F)cc2n1-c1cc(C2CCOCC2)c2c(c1)n(C)c(=O)n2C
IC50 (CBP BRD protein): < 0.5 µM | IC50 (BRD4 (BD1) protein): 0.5 to 5 µM

COc1ncccc1-c1nc2cc(-c3cnn(C)c3)c(C(F)F)cc2n1-c1cc(N2CC(C)(O)C2)c2c(c1)n(C)c(=O)n2C
IC50 (CBP BRD protein): < 0.5 µM | IC50 (BRD4 (BD1) protein): > 5 µM

Cn1cc(-c2cc3nc(-c4cncn4C)n(-c4cc(N5CC6(COC6)C5)c5c(c4)n(C)c(=O)n5C)c3cc2F)cn1
IC50 (CBP BRD protein): < 0.5 µM | IC50 (BRD4 (BD1) protein): 0.5 to 5 µM

CN1CCN(c2cc(-n3c(C(C)(C)C)nc4cc(-c5cnn(C)c5)c(C(F)F)cc43)cc3c2n(C)c(=O)n3C)CC1
IC50 (CBP BRD protein): < 0.5 µM | IC50 (BRD4 (BD1) protein): > 5 µM

Cn1cc(-c2cc3nc(-c4cncn4C)n(-c4cc(N5CCC(F)(F)CC5)c5c(c4)n(C)c(=O)n5C)c3cc2F)cn1
IC50 (CBP BRD protein): < 0.5 µM | IC50 (BRD4 (BD1) protein): > 5 µM

Cn1cc(-c2cc3nc(-c4cncn4C)n(-c4ccc5c(c4)n(C)c(=O)n5CCO)c3cc2F)cn1
IC50 (CBP BRD protein): 0.5 to 5 µM | IC50 (BRD4 (BD1) protein): > 5 µM

CC(=O)Nc1ccc(-c2cc3nc(-c4cncn4C)n(-c4cc(C5CCOCC5)c5c(c4)n(C)c(=O)n5C)c3cc2F)cc1
IC50 (CBP BRD protein): < 0.5 µM | IC50 (BRD4 (BD1) protein): 0.5 to 5 µM

CN(C)CCn1cc(-c2cc3nc(C(C)(C)C)n(-c4cc(N5CC(C)(N(C)C)C5)c5c(c4)n(C)c(=O)n5C)c3cc2C(F)F)cn1
IC50 (CBP BRD protein): < 0.5 µM | IC50 (BRD4 (BD1) protein): > 5 µM

Cc1ccc2c(-c3nc4cc(-c5cnn(C)c5)c(CO)cc4n3-c3ccc4c(c3)n(C)c(=O)n4C)c[nH]c2c1
IC50 (CBP BRD protein): < 0.5 µM | IC50 (BRD4 (BD1) protein): 0.5 to 5 µM

CNC(=O)c1ccc(-c2cc3nc(-c4cncn4C)n(-c4ccc5c(c4)n(C)c(=O)n5C)c3cc2C(C)(C)O)cc1F
IC50 (CBP BRD protein): 0.5 to 5 µM | IC50 (BRD4 (BD1) protein): 0.5 to 5 µM

COCCNc1cc(-n2c(-c3cncn3C)nc3cc(-c4cnn(C)c4)c(F)cc32)cc2c1n(C)c(=O)n2C
IC50 (CBP BRD protein): 0.5 to 5 µM | IC50 (BRD4 (BD1) protein): > 5 µM

Cn1cc(-c2cc3nc(-c4cncn4C)n(-c4cc(N5CC(O)(C(F)(F)F)C5)c5c(c4)n(C)c(=O)n5C)c3cc2C(F)F)cn1
IC50 (CBP BRD protein): < 0.5 µM | IC50 (BRD4 (BD1) protein): 0.5 to 5 µM

Cn1cc(-c2cc3nc(C(C)(C)C)n(-c4cc(N5CCSCC5)c5c(c4)n(C)c(=O)n5C)c3cc2C(F)F)cn1
IC50 (CBP BRD protein): < 0.5 µM | IC50 (BRD4 (BD1) protein): > 5 µM

Cn1cncc1-c1nc2cc(-c3cn[nH]c3)c(F)cc2n1-c1cc(N2CCOCC2)c2c(c1)n(C)c(=O)n2C
IC50 (CBP BRD protein): < 0.5 µM | IC50 (BRD4 (BD1) protein): > 5 µM

CCn1c(=O)n(C)c2cc(-n3c(-c4cncn4C)nc4cc(-c5cnn(C)c5)c(F)cc43)ccc21
IC50 (CBP BRD protein): < 0.5 µM | IC50 (BRD4 (BD1) protein): > 5 µM

CCn1cc(-c2cc3nc(-c4cncn4C)n(-c4cc(N5CCOCC5)c5c(c4)n(C)c(=O)n5C)c3cc2F)cn1
IC50 (CBP BRD protein): < 0.5 µM | IC50 (BRD4 (BD1) protein): > 5 µM

CC(C)Nc1cc(-n2c(C(C)(C)C)nc3cc(-c4ccc5c(c4)OCC(=O)N5)c(F)cc32)cc2c1n(C)c(=O)n2C
IC50 (CBP BRD protein): < 0.5 µM | IC50 (BRD4 (BD1) protein): > 5 µM

C[C@@H]1CCN1c1cc(-n2c(-c3cncn3C)nc3cc(-c4cnn(C)c4)c(F)cc32)cc2c1n(C)c(=O)n2C
IC50 (CBP BRD protein): < 0.5 µM | IC50 (BRD4 (BD1) protein): 0.5 to 5 µM

COC1(C)CN(c2cc(-n3c(C(C)(C)C)nc4cc(-c5cnn(C)c5)c(C#N)cc43)cc3c2n(C)c(=O)n3C)C1
IC50 (CBP BRD protein): < 0.5 µM | IC50 (BRD4 (BD1) protein): > 5 µM

CC(C)Nc1cc(-n2c(-c3cncn3C)nc3cc(-c4ccn(C)n4)c(F)cc32)cc2c1n(C)c(=O)n2C
IC50 (CBP BRD protein): < 0.5 µM | IC50 (BRD4 (BD1) protein): > 5 µM

Cc1nc(-c2cc3nc(C(C)(C)C)n(-c4cc(NC(C)C)c5c(c4)n(C)c(=O)n5C)c3cc2F)no1
IC50 (CBP BRD protein): < 0.5 µM | IC50 (BRD4 (BD1) protein): > 5 µM

COC1(C)CN(c2cc(-n3c(-c4cncn4C)nc4cc(-c5cnn(C)c5)c(C#N)cc43)cc3c2n(C)c(=O)n3C)C1
IC50 (CBP BRD protein): < 0.5 µM | IC50 (BRD4 (BD1) protein): > 5 µM
